Measurements from ChEMBL document CHEMBL1136239, “Bicyclo[2.2.1]heptanes as novel triple re-uptake inhibitors for the treatment of depression” (Bioorg Med Chem Lett, 2003).

Chains of the proteins cited; added tags and fusions are not shown.
UniProt P23975, whole entry: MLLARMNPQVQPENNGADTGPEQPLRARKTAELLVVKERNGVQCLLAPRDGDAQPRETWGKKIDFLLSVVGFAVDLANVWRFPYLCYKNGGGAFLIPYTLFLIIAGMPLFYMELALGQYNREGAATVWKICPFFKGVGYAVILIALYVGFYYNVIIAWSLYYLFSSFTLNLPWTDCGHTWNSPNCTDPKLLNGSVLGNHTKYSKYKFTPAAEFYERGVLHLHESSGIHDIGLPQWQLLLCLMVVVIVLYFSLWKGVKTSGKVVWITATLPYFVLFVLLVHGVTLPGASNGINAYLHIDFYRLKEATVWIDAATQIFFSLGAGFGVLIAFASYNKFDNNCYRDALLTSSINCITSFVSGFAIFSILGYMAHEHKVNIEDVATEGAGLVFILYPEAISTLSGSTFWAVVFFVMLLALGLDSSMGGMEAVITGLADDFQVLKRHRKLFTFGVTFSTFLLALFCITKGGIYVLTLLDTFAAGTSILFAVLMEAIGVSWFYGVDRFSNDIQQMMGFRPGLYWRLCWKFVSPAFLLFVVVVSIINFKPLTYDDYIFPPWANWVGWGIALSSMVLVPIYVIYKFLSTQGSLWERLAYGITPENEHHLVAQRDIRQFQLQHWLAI

How the values were obtained:
[1] = target: T1, Sodium-dependent noradrenaline transporter (Homo sapiens, UniProt P23975); assay: In vitro inhibition of [3H]NE re-uptake into synaptosome; assay type: functional, tissue-based, Brain
[2] = target: T1, Sodium-dependent noradrenaline transporter; assay: Displacement of [3H]-Nisoxetine from norepinephrine transporter
How it was run: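 Radioligand binding: inhibitory binding constants measured against a known radiolabelled re-uptake inhibitor. Ligands were [3H]citalopram for SERT, [3H]WIN35,428 for DAT and [3H]nisoxetine for NET. Values are means of three experiments; minimum significant ratio < 3.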

## CN(C)C[C@@H]1C2CCC(C2)[C@H]1c1ccc2ccccc2c1 (some centres not stated)
[1]
  IC50: 0.034 µM
[2]
  Ki: 0.149 µM

## CN(C)CC1C2CCC(C2)C1c1ccc2ccccc2c1 (configuration not stated)
[1]
  IC50: 0.045 µM
[2]
  Ki: 0.111 µM

## CNC[C@H]1C2CCC(C2)[C@@H]1c1ccc2ccccc2c1 (some centres not stated)
[1]
  IC50: 0.028 µM
[2]
  Ki: 0.099 µM

## CN(C)C[C@H]1C2CCC(CC2)[C@@H]1c1cccc(Cl)c1
[1]
  IC50: 0.044 µM
[2]
  Ki: 0.051 µM

## CN(C)C[C@H]1C2CCC(C2)[C@@H]1c1ccc2ccccc2c1 (some centres not stated)
[1]
  IC50: 0.025 µM
[2]
  Ki: 0.152 µM

## CNCC1C2CCC(C2)C1c1ccc2ccccc2c1 (configuration not stated)
[1]
  IC50: 0.045 µM
[2]
  Ki: 0.266 µM
